Test results reported in ChEMBL document CHEMBL1131389, “Unusual synthesis of new glycine antagonists via sequential aldol condensation-lactonization-elimination reaction” (Bioorg Med Chem Lett, 1998).

Target: Glutamate receptor ionotropic, NMDA 1 (Rattus norvegicus) (UniProt P35439)
Test: In vitro affinity of compound for the glycinergic site associated with NMDA receptor was assessed by inhibition of the binding of [3H]glycine

- pKi: 8.5
SMILES: O=C(/C=C/c1c(C(=O)O)[nH]c2cc(Cl)cc(Cl)c12)Nc1ccccc1
